# Data published in US8476025B2, “ATM-dependent phosphorylation of Sp1 is involved in the cellular response to DNA damage and enhances cellular survival after DNA damage” (Philadelphia Health and Education Corporation, priority 2007, dated 2013).
# Test system: Sp1 phosphorylation at Ser101
# Settings: for Detection of DNA damage by phospho-serine 101 Sp1 antibody compared with γH2AX: U2OS immunoblot; for Sp1 phosphorylation at Ser101: varying concentrations, harvested 24 hours after treatment
Compound,Detection of DNA damage by phospho-serine 101 Sp1 antibody compared with γH2AX,Sp1 phosphorylation at Ser101 (U2OS),"H2AX phosphorylation (U2OS, 24 hours after exposure)"
COc1cc([C@@H]2c3cc4c(cc3[C@@H](O[C@@H]3O[C@@H]5CO[C@@H](C)O[C@H]5[C@H](O)[C@H]3O)[C@H]3COC(=O)[C@H]23)OCO4)cc(OC)c1O [etoposide],lower doses of damaging agent than γH2AX,–,–
COc1cccc2c1C(=O)c1c(O)c3c(c(O)c1C2=O)C[C@@](O)(C(=O)CO)C[C@@H]3O[C@H]1C[C@H](N)[C@H](O)[C@H](C)O1 [doxorubicin],lower doses of damaging agent than γH2AX,–,–
NC(=O)NO [hydroxyurea],lower doses of damaging agent than γH2AX,observed,–
CN(Cc1cnc2nc(N)nc(N)c2n1)c1ccc(C(=O)N[C@@H](CCC(=O)O)C(=O)O)cc1 [methotrexate],lower doses of damaging agent than γH2AX,observed,no visualization
